This note sets out measurements from PMC5947877 (Phytomedicine : international journal of phytotherapy and …, 2017).

Protein sequences, listed by entry. Tags and fused reporters are not part of them.
UniProt P21397, whole entry: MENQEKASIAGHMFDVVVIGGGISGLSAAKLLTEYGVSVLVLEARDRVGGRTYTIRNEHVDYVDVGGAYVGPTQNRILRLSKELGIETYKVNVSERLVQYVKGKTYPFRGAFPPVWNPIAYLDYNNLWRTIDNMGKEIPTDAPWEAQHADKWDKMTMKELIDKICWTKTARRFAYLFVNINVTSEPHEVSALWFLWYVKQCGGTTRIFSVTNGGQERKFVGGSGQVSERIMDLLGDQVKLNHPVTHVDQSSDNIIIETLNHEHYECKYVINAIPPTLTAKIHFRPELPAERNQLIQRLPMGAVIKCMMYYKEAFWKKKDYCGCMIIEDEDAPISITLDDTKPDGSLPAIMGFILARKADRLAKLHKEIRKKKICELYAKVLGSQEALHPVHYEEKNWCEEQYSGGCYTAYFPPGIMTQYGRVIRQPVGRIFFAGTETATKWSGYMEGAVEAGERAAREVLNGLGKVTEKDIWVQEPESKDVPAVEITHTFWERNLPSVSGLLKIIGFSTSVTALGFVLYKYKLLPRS
UniProt P27338, whole entry: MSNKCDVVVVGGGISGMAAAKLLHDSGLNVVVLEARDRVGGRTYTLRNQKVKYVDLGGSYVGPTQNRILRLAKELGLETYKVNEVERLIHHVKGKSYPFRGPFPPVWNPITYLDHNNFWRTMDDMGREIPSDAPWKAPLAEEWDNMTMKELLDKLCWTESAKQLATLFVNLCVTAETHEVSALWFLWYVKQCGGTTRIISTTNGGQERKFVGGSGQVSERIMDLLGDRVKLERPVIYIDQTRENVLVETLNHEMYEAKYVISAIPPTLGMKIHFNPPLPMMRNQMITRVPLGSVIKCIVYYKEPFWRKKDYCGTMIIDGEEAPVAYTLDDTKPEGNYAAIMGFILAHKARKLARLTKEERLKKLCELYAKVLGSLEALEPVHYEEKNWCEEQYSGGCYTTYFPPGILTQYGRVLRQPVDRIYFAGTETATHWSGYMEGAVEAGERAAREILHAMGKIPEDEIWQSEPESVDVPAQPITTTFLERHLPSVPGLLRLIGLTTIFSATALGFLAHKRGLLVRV

What all share (format): biochemical
For assay [1], the target named is T1, recombinant human MAO-A (Homo sapiens, UniProt P21397). Description: Enzyme kinetics and mechanism of inhibition with MAO-A.
In assay [2] the target is recombinant human MAO-B (Homo sapiens, UniProt P27338). Kind of assay: Fluorometric kynuramine deamination assay, MAO-B inhibition.
The target in assay [3] is T1, recombinant human MAO-A. Kind of assay: Fluorometric kynuramine deamination assay, MAO-A inhibition.

In the case of `NNCCc1ccccc1` [Phenelzine, phenelzine, reference compound], the Ki (in general, the dissociation constant of the complex between target and ligand, obtained from inhibition or displacement) in assay [1] stood at 0.121 ± 0.0061 µM. Besides, the IC50 (in general, the point on the concentration scale where inhibition reaches its midpoint) in assay [2] was 0.14 ± 0.02 µM; in assay [3], 0.27 ± 0.03 µM.
